The source of these data is PMC3130777, “Phase I Hydroxylated Metabolites of the K2 Synthetic Cannabinoid JWH-018 Retain In Vitro and In Vivo Cannabinoid 1 Receptor Affinity and Activity” (PLoS ONE, 2011).

Protein sequences, listed by entry. Tags and fused reporters are not part of them.
UniProt P47746, whole entry: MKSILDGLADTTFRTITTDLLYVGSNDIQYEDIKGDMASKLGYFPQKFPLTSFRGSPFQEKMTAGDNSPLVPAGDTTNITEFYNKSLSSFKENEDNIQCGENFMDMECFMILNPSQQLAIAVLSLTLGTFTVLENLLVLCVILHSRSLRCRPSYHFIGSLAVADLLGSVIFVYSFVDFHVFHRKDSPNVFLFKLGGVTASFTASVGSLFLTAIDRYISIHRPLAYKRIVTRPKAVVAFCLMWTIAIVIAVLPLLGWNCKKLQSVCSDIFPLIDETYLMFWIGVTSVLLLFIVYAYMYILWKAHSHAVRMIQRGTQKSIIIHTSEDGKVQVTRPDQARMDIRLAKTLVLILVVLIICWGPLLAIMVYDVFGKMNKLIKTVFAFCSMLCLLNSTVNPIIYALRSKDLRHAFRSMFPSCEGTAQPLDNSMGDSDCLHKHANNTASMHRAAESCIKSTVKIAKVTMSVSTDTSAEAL

One may read the Ki as the equilibrium dissociation constant of an inhibitor or competing ligand from its target. A word on the EC50: it is the midpoint of the concentration-response curve.

The target in experiment [1] is T1, CB1R (Mus musculus, UniProt P47746).
T1 construct: CB1Rs are endogenously expressed in abundant quantities in the CNS; from tissue; host or cells: whole brain of B6SJL mice, crude membrane homogenates
The class given is binding.

In experiment [2] the target is T1, CB1R. The class given is biochemical.

Consider `CCCCCc1cc(O)c2c(c1)OC(C)(C)[C@@H]1CCC(C)=C[C@@H]21` [Δ^9-THC, Δ^9-tetrahydrocannabinol, reference compound], for which the Ki in experiment [1] (competition against 0.2 nM [^3H]CP-55,940, mouse whole brain membrane homogenates, mean ± SEM, n = 3–4, read-out: Affinity (Ki) for CB1Rs) stood at 15.3 ± 4.5 nM. The “Displacement of [^3H]CP-55,940 from CB1Rs” value in experiment [1] (mouse brain homogenates, data not shown) came out at 100%. Also, in experiment [2] (10 µM, compared with full agonist CP-55,940), the “Agonist type at mCB1Rs (partial or full)” value was “partial”. In experiment [2] (concentration-effect curve, Fig. 3B, n = 3–4, read-out: EC50 of G-protein activation), the EC50 came to 167 ± 84.7 nM. Also, the “G-protein stimulation ([^35S]GTPγS bound)” value in experiment [2] (receptor saturating concentration (10 µM), Fig. 3A) came to 0.07 ± 0.01 pmol/mg.
